Test results taken from US5204355A, “15-nitro-2β, 3β-dihydro- and 15-nitro-2β,3β,6,7-tetrahydrotabersonine derivatives, pharmaceutical compositions containing them and process for preparing same” (Richter Gedeon Vegyeszeti Gyar RT., priority 1990, dated 1993).

System: TET-induced increase in the brain water content
Assay: TET-induced cerebral edema in rats (brain water content, protective effect)
Type: in vivo, inbred male Hannover Wistar rats
Excerpt: The inhibitory effect on the cerebral edema of the compounds of formula (I) was studied by using the method of P. Linnee et al. "L'oedeme cerebral induit chez 1e rat par le triethyletain. Interet et limites comme methode d'etude de antioedemateux cerebraux", Ann. Pharmaceutiques francaises, 42, 431 (1984)) as described hereinafter in detail.
Inbred male Hannover Wistar rats weighing 180 to 200 g were used in these examinations. Before starting and during the treatment the animals were kept on normal laboratory diet and received tap water ad libitum.
The cerebral edema was induced by the daily administration of 2.5 mg/kg of triethyl-tin chloride (abbreviated hereinafter as TET) for 5 days. […]
The animals were decapitated on the 5th day of the treatment at 2 hours after the last treatment (with the test compound). The whole brain was rapidly removed, washed with cold 0.9 % saline, the moisture was removed by a filter paper, the brains were placed on aluminum foils previously weighed and the wet weights of the brains (together with the aluminum foil of known weight) were determined with an accuracy of one tenth mg on an electric balance (Precisa 80/A, PAG Oerlikon AG, Zurich, Switzerland).
Subsequently the brains were dried at 90° C. for 92 hours, then the gross dry weight (dry weight of the brain together with the weight of the aluminum foil) was again measured. […]

With NC(=O)CN1CCCC1=O [piracetam, 2-oxo-1-pyrrolidineacetic acid amide] the Protective effect % (Experiment 5, 100 μmol/kg oral, 5 days TET 2.5 mg/kg) was 6.7% and the “protective action against TET-induced edema (in words)” value (result in words) was “did not produce any practically useful protective action”.
